# Laboratory results taken from PMC7203245, “Lacosamide intake during pregnancy increases the incidence of foetal malformations and symptoms associated with schizophrenia in the offspring of mice” (Scientific Reports, 2020).
# Test: LCM and related compounds (RC) in embryos and mothers' serum by high-resolution MS/MSe
# Type: in vivo, mice
# Conditions: dams that received 40 and 80 mg/kg
# Procedure: Samples were extracted as described previously[25] with slight modifications. Briefly, embryos were rinsed with cold saline and ultrapure water, and their wet-weight was determined. […] The mixture was vortexed vigorously for 3 min and centrifuged at 13,000 g for 5 min. The supernatant was transferred to a new Eppendorf tube and evaporated to dryness in a stream of nitrogen gas. The residue was reconstituted with 50 µL of LC-MS Ultrapure water, vortexed for 20 s and centrifuged at 13,000 g for 5 min. The supernatant was transferred to a conic micro insert to be injected onto the UHPLC system.
# MS spectra data were collected between m/z 50 and 1000, and MS/MS spectra were registered between 50-300 Da. […] The MS^e procedure was used to identify metabolites in positive ionization mode. UPLC–QTOF-MS^e detection collects data using two scan functions, providing fragment ion information without precursor ion selection. A characteristic m/z in the low energy function allows identification through the fragment ions obtained with the high collision energy function. Two functions were acquired at different collision energies: a low energy function obtained at 2 eV; and a high-energy function obtained using a collision energy ramp ranging from 15 to 30 eV and spectra data collected between m/z 50 and 800. […]
substance,measurement,value
acetylacosamide,presence in maternal samples,none of the maternal samples contained
